biological target: T1, 5-HT2A (Homo sapiens, UniProt P28223); experiment: FLIPR Ca2+ flux agonist assay at 5-HT2A; type: cell-based; parameters: host or cells: HEK293; conditions: not given

Protein sequences, listed by entry. Tags and fused reporters are not part of them.
UniProt P28223, whole entry: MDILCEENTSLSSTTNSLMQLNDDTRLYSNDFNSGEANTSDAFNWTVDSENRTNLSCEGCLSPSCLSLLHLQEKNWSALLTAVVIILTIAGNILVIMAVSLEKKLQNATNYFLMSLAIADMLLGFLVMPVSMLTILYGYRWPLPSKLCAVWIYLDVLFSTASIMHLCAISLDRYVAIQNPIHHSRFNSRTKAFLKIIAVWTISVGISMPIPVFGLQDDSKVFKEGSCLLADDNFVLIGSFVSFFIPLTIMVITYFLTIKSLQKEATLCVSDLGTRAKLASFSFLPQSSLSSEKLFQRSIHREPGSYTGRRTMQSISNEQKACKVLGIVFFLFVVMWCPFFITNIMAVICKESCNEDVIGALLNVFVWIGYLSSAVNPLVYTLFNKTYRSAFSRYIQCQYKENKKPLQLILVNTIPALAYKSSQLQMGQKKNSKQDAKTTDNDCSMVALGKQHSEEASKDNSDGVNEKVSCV
UniProt P08908, whole entry, species assumed: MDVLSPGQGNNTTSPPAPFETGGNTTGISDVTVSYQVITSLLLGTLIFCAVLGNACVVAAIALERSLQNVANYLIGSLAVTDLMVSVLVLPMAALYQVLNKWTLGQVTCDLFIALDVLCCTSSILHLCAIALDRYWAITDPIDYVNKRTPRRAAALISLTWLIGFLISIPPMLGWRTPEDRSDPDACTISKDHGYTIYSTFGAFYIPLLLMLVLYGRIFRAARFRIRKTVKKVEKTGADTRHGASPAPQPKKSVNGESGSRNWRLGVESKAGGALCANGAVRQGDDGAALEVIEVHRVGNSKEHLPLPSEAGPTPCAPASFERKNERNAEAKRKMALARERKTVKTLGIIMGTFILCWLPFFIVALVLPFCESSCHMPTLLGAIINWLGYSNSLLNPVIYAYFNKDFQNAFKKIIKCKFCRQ
UniProt P41595, whole entry, species assumed: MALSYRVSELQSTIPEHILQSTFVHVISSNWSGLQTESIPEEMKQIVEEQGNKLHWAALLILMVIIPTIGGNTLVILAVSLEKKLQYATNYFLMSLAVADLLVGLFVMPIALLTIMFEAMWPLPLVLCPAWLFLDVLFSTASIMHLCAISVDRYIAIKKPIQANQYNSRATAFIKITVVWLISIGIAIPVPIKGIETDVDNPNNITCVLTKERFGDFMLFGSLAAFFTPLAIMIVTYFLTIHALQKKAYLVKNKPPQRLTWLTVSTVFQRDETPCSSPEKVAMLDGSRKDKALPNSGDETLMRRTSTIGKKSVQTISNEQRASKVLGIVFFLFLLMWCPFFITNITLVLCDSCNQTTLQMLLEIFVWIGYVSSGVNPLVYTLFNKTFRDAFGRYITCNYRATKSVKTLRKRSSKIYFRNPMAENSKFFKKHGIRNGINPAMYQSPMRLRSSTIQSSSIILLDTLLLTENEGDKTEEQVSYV

SMILES	EC50 [µM]
CNCCc1c[nH]c2cccc(O)c12 [Compound 2, 3-(2-(methylamino)ethyl)-1H-indol-4-ol]	0.0158
CCCNCCc1c[nH]c2cccc(O)c12 [Compound 3, 3-(2-(propylamino)ethyl)-1H-indol-4-ol]	0.0293
CCNCCc1c[nH]c2cccc(O)c12 [Compound 5, 3-(2-(ethylamino)ethyl)-1H-indol-4-ol]	0.014
CC(C)NCCc1c[nH]c2cccc(O)c12 [Compound 6, 3-(2-(isopropylamino)ethyl)-1H-indol-4-ol]	0.0225
C=CCNCCc1c[nH]c2cccc(O)c12 [Compound 23, 3-(2-(allylamino)ethyl)-1H-indol-4-ol]	0.0159

same assay, conditions: Ca2+ flux, HEK293, max dose

SMILES	5-HT2A % Act @ Max Dose [%]
CNCCc1c[nH]c2cccc(O)c12 [Compound 2, 3-(2-(methylamino)ethyl)-1H-indol-4-ol]	89.4
CCCNCCc1c[nH]c2cccc(O)c12 [Compound 3, 3-(2-(propylamino)ethyl)-1H-indol-4-ol]	90.1
CCNCCc1c[nH]c2cccc(O)c12 [Compound 5, 3-(2-(ethylamino)ethyl)-1H-indol-4-ol]	107.9
CC(C)NCCc1c[nH]c2cccc(O)c12 [Compound 6, 3-(2-(isopropylamino)ethyl)-1H-indol-4-ol]	83.8
C=CCNCCc1c[nH]c2cccc(O)c12 [Compound 23, 3-(2-(allylamino)ethyl)-1H-indol-4-ol]	85.46

biological target: T2, 5-HT1A (Homo sapiens, UniProt P08908); experiment: FLIPR Ca2+ flux agonist assay at 5-HT1A; type: cell-based; conditions: not given
T2 construct: host or cells: CHO cells

SMILES	EC50 [µM]
CNCCc1c[nH]c2cccc(O)c12 [Compound 2, 3-(2-(methylamino)ethyl)-1H-indol-4-ol]	23
CCNCCc1c[nH]c2cccc(O)c12 [Compound 5, 3-(2-(ethylamino)ethyl)-1H-indol-4-ol]	27.2
C=CCNCCc1c[nH]c2cccc(O)c12 [Compound 23, 3-(2-(allylamino)ethyl)-1H-indol-4-ol]	> 100

same assay, conditions: Ca2+ flux, CHO cells, max dose

SMILES	5-HT1A % Act @ Max Dose [%]
CNCCc1c[nH]c2cccc(O)c12 [Compound 2, 3-(2-(methylamino)ethyl)-1H-indol-4-ol]	64.8
CCNCCc1c[nH]c2cccc(O)c12 [Compound 5, 3-(2-(ethylamino)ethyl)-1H-indol-4-ol]	38.71
C=CCNCCc1c[nH]c2cccc(O)c12 [Compound 23, 3-(2-(allylamino)ethyl)-1H-indol-4-ol]	9.13

biological target: T3, 5-HT2B (Homo sapiens, UniProt P41595); experiment: FLIPR Ca2+ flux agonist assay at 5-HT2B; type: cell-based; conditions: not given
T3 construct: host or cells: HEK293

SMILES	EC50 [µM]
CCNCCc1c[nH]c2cccc(O)c12 [Compound 5, 3-(2-(ethylamino)ethyl)-1H-indol-4-ol]	0.276
CC(C)NCCc1c[nH]c2cccc(O)c12 [Compound 6, 3-(2-(isopropylamino)ethyl)-1H-indol-4-ol]	0.999
C=CCNCCc1c[nH]c2cccc(O)c12 [Compound 23, 3-(2-(allylamino)ethyl)-1H-indol-4-ol]	0.089

same assay, conditions: Ca2+ flux

SMILES	agonism at 5-HT2B (in words)
CC(C)NCCc1c[nH]c2cccc(O)c12 [Compound 6, 3-(2-(isopropylamino)ethyl)-1H-indol-4-ol]	partial agonism at 5-HT2B

same assay, conditions: Ca2+ flux, HEK293, max dose

SMILES	5-HT2B % Act @ Max Dose [%]
CNCCc1c[nH]c2cccc(O)c12 [Compound 2, 3-(2-(methylamino)ethyl)-1H-indol-4-ol]	1.79
CCCNCCc1c[nH]c2cccc(O)c12 [Compound 3, 3-(2-(propylamino)ethyl)-1H-indol-4-ol]	1.06
CCNCCc1c[nH]c2cccc(O)c12 [Compound 5, 3-(2-(ethylamino)ethyl)-1H-indol-4-ol]	18.58
CC(C)NCCc1c[nH]c2cccc(O)c12 [Compound 6, 3-(2-(isopropylamino)ethyl)-1H-indol-4-ol]	21.48
C=CCNCCc1c[nH]c2cccc(O)c12 [Compound 23, 3-(2-(allylamino)ethyl)-1H-indol-4-ol]	47.88

biological target: T1, 5-HT2A; experiment: 5-HT2A receptor radioligand binding ([3H]ketanserin); conditions: not given
Description: The binding affinities of disclosed compounds at the ketanserin binding site of the 5-HT2A receptor were determined in radioligand binding experiments.
Method. Affinity of the test compounds for the 5-HT2A receptor was determined in radioligand binding experiments with [^3H]ketanserin by WuXi AppTec (Hong Kong) Limited, using methods adapted from the literature and under conditions described in Table 4.

SMILES	Ki [µM]
CCCNCCc1c[nH]c2cccc(O)c12 [Compound 3, 3-(2-(propylamino)ethyl)-1H-indol-4-ol]	1

system: monoamine oxidase A and B (MAO-A and MAO-B); experiment: Stability in the presence of monoamine oxidases (human liver mitochondria preparation); parameters: dose or concentration left out as unconfirmed; conditions: pH 7.4
Description: Liver Mitochondria Incubations. Human liver mitochondria (Xenotech H0610.M) were used.

SMILES	microsomal CLint [µL/min/mg]
C=CCNCCc1c[nH]c2cccc(O)c12 [Compound 23, 3-(2-(allylamino)ethyl)-1H-indol-4-ol]	< 15.9
